{
  "source": "patent US20100203126A1",
  "about": "“MULTILAYERED VITAMIN COMPLEX TABLET CONTAINING UBIDECARENONE” (priority 2007, published 2010)",
  "key": {"[1]": {"test": "Stability test for ubidecarenone and vitamins/minerals under co-existence at typical formulation ratio", "format": "physicochemical", "details": "ubidecarenone 50 mg, accelerated stability test", "description": "Ubidecarenone and vitamins/minerals were under co-existence at a typical formulation amount and ratio, and then the accelerated stability test for ubidecarenone was performed. In the following table, ubidecarenone is contained at the same amount of 50 mg in each formulation. The amount of ubidecarenone was omitted in the column of preparation formulation.\nThe content of ingredients such as vitamins and the content of ubidecarenone (50 mg equally) under the co-existence were represented in the column of preparation formulation of Table 27."}, "[2]": {"test": "Stability test for ubidecarenone and vitamins/minerals under co-existence, mixed 1:1", "format": "physicochemical", "details": "40±2° C., 75±5 RH %"}},
  "data": [
    {"smiles": "COC1=C(OC)C(=O)C(C/C=C(\\C)CC/C=C(\\C)CC/C=C(\\C)CC/C=C(\\C)CC/C=C(\\C)CC/C=C(\\C)CC/C=C(\\C)CC/C=C(\\C)CC/C=C(\\C)CCC=C(C)C)=C(C)C1=O", "note": "[Ubidecarenone]", "values": [
      {"measurement": "residual amount of ubidecarenone, 4 weeks (%)", "setting": "[1]; 4 weeks", "result": 97.2, "unit": "%"},
      {"measurement": "residual amount of ubidecarenone, 6 weeks (%)", "setting": "[1]; 6 weeks", "result": 96.4, "unit": "%"},
      {"measurement": "% residual amount of ubidecarenone", "setting": "[2]; 4 weeks", "result": 97.2, "unit": "%"},
      {"measurement": "% residual amount of ubidecarenone", "setting": "[2]; 6 weeks", "result": 96.4, "unit": "%"}
    ]}
  ]
}
